Earlier results in US20160184401A1, “NON-AGGLOMERATING BIOCONJUGATES OF AMYLIN AND AMYLIN-MIMETIC COMPOUNDS, COMPOSITIONS COMPRISING THE SAME, AND MAKING AND USE THEREOF” (UNIVERSIDADE FEDERAL DO RIO DE JANEIRO, priority 2013, published 2016).

Settings: human, in vivo; cited from earlier work

## CC[C@H](C)[C@H](NC(=O)[C@@H]1CCCN1C(=O)CNC(=O)[C@H](Cc1ccccc1)NC(=O)[C@H](CC(N)=O)NC(=O)[C@H](CC(N)=O)NC(=O)[C@H](CO)NC(=O)[C@H](CO)NC(=O)[C@H](Cc1c[nH]cn1)NC(=O)[C@@H](NC(=O)[C@H](CC(C)C)NC(=O)[C@H](Cc1ccccc1)NC(=O)[C@H](CC(N)=O)NC(=O)[C@H](C)NC(=O)[C@H](CC(C)C)NC(=O)[C@H](CCCNC(=N)N)NC(=O)[C@H](CCC(N)=O)NC(=O)[C@@H](NC(=O)[C@H](C)NC(=O)[C@@H]1CSSC[C@H](NC(=O)[C@@H](N)CCCCN)C(=O)N[C@@H](CC(N)=O)C(=O)N[C@@H]([C@@H](C)O)C(=O)N[C@@H](C)C(=O)N[C@@H]([C@@H](C)O)C(=O)N1)[C@@H](C)O)C(C)C)C(=O)N[C@@H](CC(C)C)C(=O)N1CCC[C@H]1C(=O)N1CCC[C@H]1C(=O)N[C@H](C(=O)N[C@@H](CC(N)=O)C(=O)N[C@H](C(=O)NCC(=O)N[C@@H](CO)C(=O)N[C@@H](CC(N)=O)C(=O)N[C@H](C(=O)N[C@@H](Cc1ccc(O)cc1)C(N)=O)[C@@H](C)O)C(C)C)[C@@H](C)O [pramlintide]
  plasma half-life: 10 to 15 min
